Assay results published in PubChem BioAssay (NCI).
Only a part is listed here, and it is no random draw.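 The endpoint reported here, percent growth, reads 100 for growth as untreated, 0 for no net growth and -100 for all cells dead.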 Activity calls are given as the source filed them. How the source made its calls: active means growth percent below 10; inactive means the rest.

Legend:
Experiment in all cases: NCI-60 one-dose screen, 48 h (100 = growth as untreated, 0 = no growth, -100 = all killed)
HCT-15 colon = settings: 10 µM unless noted
HT29 colon = settings: 10 µM unless noted
SNB-75 CNS = settings: 10 µM unless noted
SNB-19 CNS = settings: 10 µM unless noted
U251 CNS = settings: 10 µM unless noted
PC-3 prostate = settings: 10 µM unless noted
SK-MEL-5 melanoma = settings: 10 µM unless noted
UACC-62 melanoma = settings: 10 µM unless noted
LOX IMVI melanoma = settings: 10 µM
SK-MEL-28 melanoma = settings: 10 µM unless noted
EKVX NSCLC = settings: 10 µM unless noted
SN12C renal = settings: 10 µM unless noted
UO-31 renal = settings: 10 µM unless noted
TK-10 renal = settings: 10 µM unless noted
ACHN renal = settings: 10 µM unless noted
CAKI-1 renal = settings: 10 µM unless noted
A498 renal = settings: 10 µM unless noted
HL-60(TB) leukemia = settings: 10 µM unless noted
CCRF-CEM leukemia = settings: 10 µM unless noted
SK-MEL-2 melanoma = settings: 10 µM unless noted

Measured: growth

NNc1ccc([N+](=O)[O-])cc1[N+](=O)[O-]
inactive: HCT-15 colon 94% | HT29 colon 106% | SNB-75 CNS 85.3% | SNB-19 CNS 107% | U251 CNS 106% | PC-3 prostate 107% | SK-MEL-5 melanoma 111% | UACC-62 melanoma 87.3% | LOX IMVI melanoma 87.2% | SK-MEL-28 melanoma 116% | EKVX NSCLC 101% | SN12C renal 98.9% | UO-31 renal 60.8% | TK-10 renal 106% | ACHN renal 89.4% | CAKI-1 renal 84.1% | A498 renal 99.2% | HL-60(TB) leukemia 98.7% | CCRF-CEM leukemia 69.9%

O=[As](O)(c1ccc(O)cc1)c1ccccc1O
inactive: HCT-15 colon 102% | HT29 colon 97% | SNB-75 CNS 91.4% | SNB-19 CNS 101% | U251 CNS 101% | SK-MEL-5 melanoma 103% | UACC-62 melanoma 94.8% | LOX IMVI melanoma 102% | SK-MEL-28 melanoma 101% | SK-MEL-2 melanoma 102% | EKVX NSCLC 94% | SN12C renal 97.1% | UO-31 renal 92.5% | TK-10 renal 94.3% | ACHN renal 99.1% | CAKI-1 renal 98.1% | A498 renal 101% | HL-60(TB) leukemia 95.5% | CCRF-CEM leukemia 90.5%

ClCCN1CCc2ccccc2C1
inactive: HCT-15 colon 92.2% | HT29 colon 99.8% | SNB-75 CNS 94.8% | SNB-19 CNS 99.3% | U251 CNS 98.9% | PC-3 prostate 87.2% | SK-MEL-5 melanoma 108% | UACC-62 melanoma 94.9% | LOX IMVI melanoma 88.3% | SK-MEL-28 melanoma 100% | SK-MEL-2 melanoma 104% | SN12C renal 92.8% | UO-31 renal 74.6% | TK-10 renal 88.3% | ACHN renal 88.9% | A498 renal 98.6% | HL-60(TB) leukemia 96.5%

O=P1(N(CCCl)CCCl)OCCC2CCCCN21 (stereo not given)
inactive: HCT-15 colon 105% | HT29 colon 108% | SNB-75 CNS 97.5% | SNB-19 CNS 99.7% | U251 CNS 103% | PC-3 prostate 98% | SK-MEL-5 melanoma 113% | UACC-62 melanoma 96.4% | SK-MEL-28 melanoma 116% | SK-MEL-2 melanoma 99.2% | EKVX NSCLC 119% | SN12C renal 99.5% | UO-31 renal 91.3% | TK-10 renal 114% | ACHN renal 103% | CAKI-1 renal 103% | A498 renal 122% | HL-60(TB) leukemia 63.7% | CCRF-CEM leukemia 91.9%

C/C(N)=N\P(=O)(OCc1ccccc1)OCc1ccccc1
inactive: HCT-15 colon 96.5% | HT29 colon 106% | SNB-75 CNS 90.6% | SNB-19 CNS 104% | U251 CNS 99.1% | PC-3 prostate 100% | SK-MEL-5 melanoma 105% | UACC-62 melanoma 95.7% | LOX IMVI melanoma 99.2% | SK-MEL-28 melanoma 105% | SK-MEL-2 melanoma 118% | SN12C renal 94.8% | UO-31 renal 83% | TK-10 renal 106% | ACHN renal 99.6% | CAKI-1 renal 96.4% | A498 renal 99.1% | HL-60(TB) leukemia 112% | CCRF-CEM leukemia 105%

Nc1ccc(CCCCOc2ccccc2)cc1
inactive: HCT-15 colon 103% | HT29 colon 99.6% | SNB-75 CNS 78.2% | SNB-19 CNS 87% | U251 CNS 75.4% | PC-3 prostate 79% | SK-MEL-5 melanoma 88.9% | UACC-62 melanoma 83.3% | LOX IMVI melanoma 96.2% | SK-MEL-28 melanoma 109% | SK-MEL-2 melanoma 99.4% | SN12C renal 50.4% | UO-31 renal 41.9% | TK-10 renal 92.2% | ACHN renal 108% | CAKI-1 renal 98.8% | A498 renal 74.4% | HL-60(TB) leukemia 28.4% | CCRF-CEM leukemia 24.1%

Cc1ccc(OP(=O)(Nc2ccc([N+](=O)[O-])cn2)Oc2ccc(C)cc2)cc1
inactive: HCT-15 colon 98.8% | HT29 colon 108% | SNB-75 CNS 101% | SNB-19 CNS 116% | U251 CNS 96.9% | PC-3 prostate 91.6% | SK-MEL-5 melanoma 97.9% | UACC-62 melanoma 82.1% | LOX IMVI melanoma 99.2% | SK-MEL-28 melanoma 119% | EKVX NSCLC 107% | SN12C renal 106% | UO-31 renal 76.5% | TK-10 renal 161% | ACHN renal 103% | A498 renal 21.2% | HL-60(TB) leukemia 102% | CCRF-CEM leukemia 109%

O=C(O)C(=O)c1ccc(N(CCCl)CCCl)cc1
inactive: HCT-15 colon 99.3% | HT29 colon 102% | SNB-75 CNS 94.8% | SNB-19 CNS 102% | U251 CNS 99.9% | PC-3 prostate 106% | SK-MEL-5 melanoma 101% | UACC-62 melanoma 98.9% | LOX IMVI melanoma 95.4% | SK-MEL-28 melanoma 110% | SK-MEL-2 melanoma 95.5% | SN12C renal 103% | UO-31 renal 87.7% | TK-10 renal 101% | ACHN renal 101% | CAKI-1 renal 101% | A498 renal 103% | HL-60(TB) leukemia 101% | CCRF-CEM leukemia 98.8%

O=[N+]([O-])c1ccc(Oc2cccc(Oc3ccc([N+](=O)[O-])cc3[N+](=O)[O-])c2)c([N+](=O)[O-])c1
inactive: HCT-15 colon 57.2% | HT29 colon 99.1% | SNB-75 CNS 82.7% | SNB-19 CNS 96.9% | U251 CNS 88.9% | PC-3 prostate 91.4% | SK-MEL-5 melanoma 77.9% | SK-MEL-28 melanoma 97.9% | SK-MEL-2 melanoma 78% | EKVX NSCLC 98.5% | SN12C renal 64.1% | UO-31 renal 53.1% | TK-10 renal 100% | ACHN renal 89.9% | CAKI-1 renal 82.6% | A498 renal 96.5% | HL-60(TB) leukemia 90.2% | CCRF-CEM leukemia 14.8%
active: LOX IMVI melanoma 7.05%

Fc1cccc(CNCCCl)c1
inactive: HCT-15 colon 106% | HT29 colon 112% | SNB-75 CNS 99.7% | SNB-19 CNS 119% | U251 CNS 103% | PC-3 prostate 99.8% | UACC-62 melanoma 121% | LOX IMVI melanoma 106% | SK-MEL-28 melanoma 114% | SK-MEL-2 melanoma 114% | EKVX NSCLC 112% | SN12C renal 125% | UO-31 renal 102% | TK-10 renal 110% | ACHN renal 122% | CAKI-1 renal 102% | A498 renal 129% | HL-60(TB) leukemia 111% | CCRF-CEM leukemia 80%

CC1CCNP(=O)(N(CCCl)CCCl)O1 (stereo not given)
inactive: HCT-15 colon 103% | HT29 colon 105% | SNB-75 CNS 90.3% | SNB-19 CNS 105% | U251 CNS 107% | PC-3 prostate 90.4% | UACC-62 melanoma 102% | LOX IMVI melanoma 101% | SK-MEL-28 melanoma 112% | SK-MEL-2 melanoma 122% | EKVX NSCLC 94.6% | SN12C renal 113% | UO-31 renal 83.5% | TK-10 renal 107% | ACHN renal 105% | CAKI-1 renal 90.3% | A498 renal 95.9% | HL-60(TB) leukemia 121% | CCRF-CEM leukemia 84.4%

CCOP(=O)(Nc1ccc(C)cn1)OCC
inactive: HCT-15 colon 95.1% | HT29 colon 96.8% | SNB-75 CNS 84.7% | SNB-19 CNS 99% | U251 CNS 106% | SK-MEL-5 melanoma 95.4% | UACC-62 melanoma 113% | LOX IMVI melanoma 102% | SK-MEL-28 melanoma 118% | SK-MEL-2 melanoma 107% | EKVX NSCLC 109% | SN12C renal 105% | UO-31 renal 94.4% | TK-10 renal 123% | ACHN renal 107% | CAKI-1 renal 112% | A498 renal 89.5% | HL-60(TB) leukemia 75.1% | CCRF-CEM leukemia 101%

NCCSP(=O)(O)O
inactive: HCT-15 colon 103% | HT29 colon 104% | SNB-75 CNS 98.5% | SNB-19 CNS 99.7% | U251 CNS 104% | PC-3 prostate 95.6% | UACC-62 melanoma 96.4% | LOX IMVI melanoma 115% | SK-MEL-28 melanoma 112% | SK-MEL-2 melanoma 110% | EKVX NSCLC 124% | SN12C renal 97.6% | UO-31 renal 96.8% | TK-10 renal 114% | ACHN renal 110% | CAKI-1 renal 100% | A498 renal 104% | HL-60(TB) leukemia 98.6% | CCRF-CEM leukemia 38.3%

O=P1(N(CCCl)CCCl)NCCC(C(F)(F)F)O1 (stereo not given)
inactive: HCT-15 colon 96.6% | HT29 colon 106% | SNB-75 CNS 110% | SNB-19 CNS 98.8% | U251 CNS 98.3% | PC-3 prostate 106% | SK-MEL-5 melanoma 100% | UACC-62 melanoma 97.3% | LOX IMVI melanoma 102% | SK-MEL-28 melanoma 102% | SK-MEL-2 melanoma 116% | SN12C renal 100% | UO-31 renal 102% | TK-10 renal 102% | ACHN renal 101% | CAKI-1 renal 89% | A498 renal 76.8% | HL-60(TB) leukemia 87.1% | CCRF-CEM leukemia 102%

NC(=O)Nc1ccc([As](=O)(O)O)cc1
inactive: HCT-15 colon 99.2% | HT29 colon 96.5% | SNB-75 CNS 73.2% | SNB-19 CNS 103% | U251 CNS 101% | PC-3 prostate 96.1% | SK-MEL-5 melanoma 104% | UACC-62 melanoma 104% | LOX IMVI melanoma 93.3% | SK-MEL-28 melanoma 108% | EKVX NSCLC 98.7% | SN12C renal 100% | UO-31 renal 87.7% | TK-10 renal 98.4% | ACHN renal 115% | CAKI-1 renal 95.1% | A498 renal 99.7% | HL-60(TB) leukemia 73.7% | CCRF-CEM leukemia 106%

COC(=O)C1(C)COP(=O)(N2CCCC2)OC1 (stereo not given)
inactive: HCT-15 colon 104% | HT29 colon 98.7% | SNB-75 CNS 90.4% | SNB-19 CNS 106% | U251 CNS 105% | PC-3 prostate 95.9% | SK-MEL-5 melanoma 107% | UACC-62 melanoma 105% | LOX IMVI melanoma 97.8% | SK-MEL-28 melanoma 106% | SK-MEL-2 melanoma 95.4% | SN12C renal 102% | UO-31 renal 80.3% | TK-10 renal 108% | ACHN renal 107% | CAKI-1 renal 97.4% | A498 renal 111% | HL-60(TB) leukemia 96.4% | CCRF-CEM leukemia 92.5%

Cc1ccc(NCCCl)c2c(=O)c3ccccc3sc12
inactive: HCT-15 colon 88.8% | HT29 colon 95.5% | SNB-75 CNS 95% | SNB-19 CNS 96.5% | U251 CNS 94.9% | PC-3 prostate 104% | SK-MEL-5 melanoma 101% | UACC-62 melanoma 87.2% | LOX IMVI melanoma 96% | SK-MEL-28 melanoma 106% | SK-MEL-2 melanoma 105% | SN12C renal 97.4% | UO-31 renal 84.7% | TK-10 renal 105% | ACHN renal 109% | CAKI-1 renal 93.9% | A498 renal 78.7% | HL-60(TB) leukemia 77.1% | CCRF-CEM leukemia 97.8%
